In patent US4812469A, “Acetamides derived from 2,3-dihydro-3-phenyl-2-benzofuranone” (Adir Et Cie, priority 1987, dated 1989):

Test system: tissue energy-rich compounds (ATP, ADP, AMP) of the brain
Assay: Acute normobaric hypoxia in rats, brain tissue energy-rich compounds (ATP level and energy content)
Type: in vivo, rats (male Fischer 344)
Conditions: 300 mg/kg I.P., 3% oxygen for 2 minutes
Description: The compounds of the present invention were tested in respect of their capacity to prolong the survival of cerebral tissue during acute hypoxia in mice, or to maintain the level of tissue energy-rich compounds in rats subjected to a fall in the oxygen supply [Pharmacology of Cerebral Ischemia, ([…]) p. 334-339 Elsevier Science Publishers B.V., J. Krieglstein ed.]. […] Forsch. Drug Res. (1986), 36 II No. 9, p. 1314-1320].
Whereas the control rats breathe a gaseous mixture containing 21% of oxygen and 79% of nitrogen, the rats subjected to hypoxia breath a mixture of 3% oxygen and 97% nitrogen for 2 minutes.
At the end of the hypoxic period, the animals are rapidly sacrificed by total immersion in liquid nitrogen. The frozen brain is removed and the energy-rich compounds (ATP, ADP, AMP) are extracted and assayed by the luciferin luminescence method.
The tissue energy content (EC) is calculated according to ATKINSON's formula: [formula]

NC(=O)CN1CCCC1=O [Piracetam, piracetam]
% inhibition of the effects of hypoxia: ATP: 3.9% | % inhibition of the effects of hypoxia: EC (energy content): 1.6%
